Binding of CDR-mutated scFvs to a peptide of the spike HR2 region

Values reported by Engelhart et al. 2022, doi:10.1038/s41597-022-01779-4 (FLAb copy).

Target peptide (SARS-CoV-2 spike, HR2 region): PDVDLGDISGINAS

Each scFv is VH, three GGGGS repeats, VL, as in the parent Ab-95, and differs from it in the CDRs of the light chain only.
VH: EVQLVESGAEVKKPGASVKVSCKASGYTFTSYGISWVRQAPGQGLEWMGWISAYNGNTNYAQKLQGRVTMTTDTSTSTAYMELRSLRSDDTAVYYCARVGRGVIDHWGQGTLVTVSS
VL: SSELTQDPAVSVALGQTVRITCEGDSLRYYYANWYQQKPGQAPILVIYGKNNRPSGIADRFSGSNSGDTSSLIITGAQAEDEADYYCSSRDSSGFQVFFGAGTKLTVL

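The starting antibody came from a phage panning campaign against this peptide. Library AAYL52 holds single substitutions and randomly drawn double and triple substitutions in the CDRs. The assay is AlphaSeq: two haploid yeast populations carry antibody and antigen on their surface. Pairs that bind mate more often; barcode pairs of the diploids are counted by sequencing. Scores were corrected for input abundance and mapped to Kd with protein pairs of known affinity run in the same pool. There are three technical replicates.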

Variants are written as CDR1, CDR2 and CDR3 of the light chain (limits as in the source). Parent: EGDSLRYYYAN, GKNNRPS, SSRDSSGFQVF.
Scale: log10 of Kd in nM, estimated from mating counts; low values are strong binders.
The mean shown is taken over the replicates in which the pair was detected.
A pair that was not seen in that replicate is written "nd"; this usually means weak binding, but a binder can also be missed.
Nonspecific signal, from three strains lacking the peptide, appeared in 28% of pairings of library AAYL52, centred on 3.91 (5% of these signals below 2.90); values are not corrected for it. The control count says in how many pairings with the empty strains this scFv gave a signal.
For reference, the parent read 2.31 as the reference entry and 2.25 as a member of this library.

With EGDSLRYYYAN, GKNNAPS, SSRDCSGFQKF the result was 3.43, nd, nd (controls 2 of 9).
With EGDMLRYYYAN, GKNNRPS, SSRDSSGFQVF the result was 2.66, 3.84, 2.56 (mean 3.02; controls 2 of 9).
With EGDSLRYYTAN, GKNNRPS, SSRDSEGFQVL the result was nd, 2.71, 2.14 (mean 2.43; controls 3 of 9).
With EGDSLRYYYAN, GKNNRDS, KTRDSSGFQVF the result was nd, 5.43, 3.65 (mean 4.54; controls 0 of 9).
With EGDWLRCYYAN, GKNNEPS, SSRDSSGFQVF the result was 3.47, nd, nd (controls 1 of 9).
With EGAELRYYYAN, GKNNRPS, SSRDSSGYQVF the result was 3.98, 3.06, 3.48 (mean 3.50; controls 1 of 9).
With EGDSLRYYEAN, QKNNRPS, SSRDHSGFQVF the result was 2.66, nd, 2.46 (mean 2.56; controls 0 of 9).
With YGDSLRYYYAN, GKNNRPS, SSRDTSGHQVF the result was 3.56, 2.21, 3.09 (mean 2.95; controls 2 of 9).
With EGMSLRYYGAN, GKNNRPS, SSRDSTGFQVF the result was 1.89, 1.69, 1.46 (mean 1.68; controls 2 of 9).
With EGDSLRYYYAN, GENNRPS, SSYDSSGFQVW the result was 2.58, 2.62, 1.84 (mean 2.35; controls 4 of 9).
With EGDSLRTYYAN, GKNNYPS, SSRHSSGFQVF the result was nd, 4.33, 4.46 (mean 4.39; controls 1 of 9).
With EGDSLRWYYAN, GKNLRPR, SSRDSSGFQVF the result was 3.77, 3.58, 3.32 (mean 3.56; controls 4 of 9).
With EGDSLRYYYAN, GKNNRPS, SSPDSSGFQVF the result was 2.20, 2.49, 2.32 (mean 2.33; controls 1 of 9).
With EGDGVRYYYAN, GKNNRPS, SERDSSGFQVF the result was nd, 4.01, nd (controls 3 of 9).
With EGDSLRNYYAN, GKNNRPS, SSRDSHGFGVF the result was 1.72, 1.69, 2.02 (mean 1.81; controls 4 of 9).
With ENLSLRYYYAN, GKNNRPS, SSRDSSGCQVF the result was nd, 4.22, nd (controls 3 of 9).
With EGDMARYYYAN, GKFNRPS, SSRDSSGFQVF the result was 4.78, 3.35, nd (mean 4.06; controls 4 of 9).
With EGRSLRYYYAN, GKNNNPS, SSRDSSGSQVF the result was 3.27, 3.28, 3.34 (mean 3.30; controls 3 of 9).
With FGDSLRYYYAN, GKCNRPS, VSRDSSGFQVF the result was 3.91, 3.87, nd (mean 3.89; controls 1 of 9).
With NGDSLRYYMAY, GKNNRPS, SSRDSSGFQVF the result was 6.04, 4.02, 4.20 (mean 4.75; controls 4 of 9).
With EGASLRYYPAN, GKNNRPS, SNRDSSGFQVF the result was 2.84, 2.54, 2.43 (mean 2.60; controls 2 of 9).
With EGDSLRYYTAN, GKKNRPS, SSRDSSGFQVM the result was 4.29, nd, nd (controls 0 of 9).
With EGDSLRYYYAN, GKNNRPS, YSHDSSGFQVF the result was 1.81, 1.87, 1.37 (mean 1.69; controls 3 of 9).
With EGDSLRGYYAN, GKNNRPS, SSRDNSGFQVF the result was 1.16, 0.99, 0.46 (mean 0.87; controls 5 of 9).
With EGDSLRYYYAN, IKNNRPS, SSRDSSGGQVF the result was 3.95, nd, 4.49 (mean 4.22; controls 5 of 9).
With EGDYLRYYYAG, GKNNSPS, SSRDSSGFQVF the result was nd, nd, nd (controls 1 of 9).
With EGDSQRYYYAN, GKNNEPS, SSRDSSGCQVF the result was 4.26, 5.63, nd (mean 4.94; controls 2 of 9).
With EGDSLRYYYAN, GKNHRPS, SNRDSSGNQVF the result was 3.57, 4.27, nd (mean 3.92; controls 1 of 9).
With EGDSLRYWYAN, GKNNRPS, SSLDSSGFQKF the result was nd, nd, 3.58 (controls 2 of 9).
With EGDSLRYYMAN, GKNARPF, SSRDSSGFQVF the result was 2.48, 2.37, 1.89 (mean 2.25; controls 2 of 9).
With ESDSLRYHYAN, GKNNRPW, SSRDSSGFQVF the result was 2.53, 2.16, 2.24 (mean 2.31; controls 4 of 9).
With EGDSLRYYYMN, GKNNRPS, SSRVLSGFQVF the result was 4.02, 4.07, 3.29 (mean 3.79; controls 3 of 9).
With EGDSLRYYYAN, GKVNRPS, SSRDSSGFQVF the result was 3.49, 3.40, 2.99 (mean 3.29; controls 5 of 9).
With EGDLLRYHYAN, GDNNRPS, SSRDSSGFQVF the result was 1.85, 1.50, 1.56 (mean 1.63; controls 0 of 9).
With EGDSLWYYYAN, GKNNRPS, SSRDSSPFQVF the result was nd, nd, 4.52 (controls 4 of 9).
With EGDSLRYYYAN, GKNWRPS, SSRDSSGFQFL the result was 4.10, 3.27, nd (mean 3.69; controls 3 of 9).
With EGTSLRYYVPN, GKNNRPS, SSRDSSGFQVF the result was 2.60, 2.20, 2.64 (mean 2.48; controls 4 of 9).
With EADSLRYYMAN, GKNNRPS, SSRDKSGFQVF the result was 2.43, 3.46, 1.92 (mean 2.60; controls 2 of 9).
With EGDSLRYYYAN, GKNNRPS, SSPDSRGNQVF the result was nd, nd, nd (controls 0 of 9).
With EGDSLRYYYAN, GKNWRES, SSRDSSGFQVD the result was 3.73, 3.14, 4.39 (mean 3.75; controls 3 of 9).
With EGDSLRYYYAN, GKNNLPC, SSRDSSDFQVF the result was 4.92, 3.43, 4.54 (mean 4.30; controls 5 of 9).
With ETDSLRYYYAN, GKNNRPS, SSQDRSGFQVF the result was nd, nd, nd (controls 1 of 9).

Again, the first 3 entries without any signal:

CDR-L1,CDR-L2,CDR-L3,log10 Kd (nM) by replicate,mean log10 Kd (nM),control signals
EGDYLRYYYAG,GKNNSPS,SSRDSSGFQVF,"nd, nd, nd",nd,1 of 9
EGDSLRYYYAN,GKNNRPS,SSPDSRGNQVF,"nd, nd, nd",nd,0 of 9
ETDSLRYYYAN,GKNNRPS,SSQDRSGFQVF,"nd, nd, nd",nd,1 of 9